Only some compounds are listed: those with a hit (about 1.2% of all), similar ones and a draw of the others.
Pemphigus Ab inh: inhibitors of pemphigus antibody binding to DSG3, primary screen, biochemical, bead-based, flow cytometry, scFv-GFP; DSG3-coupled beads, scFv-anti-DSG3-GFP binding; active compounds read low; 0.48% of 310,000 active; binding (percent of control), % at 10 µM; Desmoglein-3 (Homo sapiens), P32926;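 active = binding more than 3 SD below its plate's average and above zero; inconclusive = below that plate limit but binding exactly zero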;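 note: hits lower antibody fragment binding to DSG3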
TbMetRS inhib: T. brucei MetRS inhibitors, primary screen, biochemical, luminescence | purified T. brucei MetRS, ATP depletion, Kinase-Glo luminescence | inhibition, % at 11.9 µM | 0.4% of 360,000 active | AID 624268, 2012;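 active = inhibition above a per-plate cutoff of the control wells' mean inhibition plus 3 SD, cut at about 5.5% in these data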
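Assay system: T. brucei methionyl-tRNA synthetase, purified | Medium: HEPES buffer with MgCl2, KCl, DTT, spermine, BSA, pyrophosphatase | Compound: 11.9 µM single point | Incubation: 15 min enzyme-compound preincubation, 2 h reaction, 10 min detection, 25 °C | Measured by: Kinase-Glo luciferase luminescence reporting remaining unconsumed ATP | Measure: % inhibition normalized to control-well medians | Replication: Singlicate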
Arr AP2 block: inhibitors of beta-arrestin/AP2 binding, primary screen, biochemical, GPCR trafficking, flow cytometry; beta-arrestin 1 C-terminal peptide binding to AP2 beta2-adaptin appendage (human); FITC-arrestin peptide / GST-AP2 beads; AP2 beta2 appendage carries R879A mutation; inhibition, % at 10 µM; 0.31% of 340,000 active; AID 504490, 2011;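 active = inhibition above a set limit, near 3 SD of compounds lacking own fluorescence, cut at about 54% in these data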
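System: GST-AP2 R879A glutathione beads | Also added: FITC-arrestin peptide, 50 nM | Times: 12 min plus 1 h, RT | Signal: Bead flow cytometry, FITC channel | Buffer or medium: PBS with 0.05% Tween 20 and 0.1% BSA | Read-out basis: Percent drop in bead-associated FITC signal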
UUG fidelity: alters start codon recognition fidelity in yeast; AID 602363; activity score, % at 18.7 µM; 350,000 tested, 0.13% active; S. cerevisiae UUG-firefly luciferase reporter, luminescence/redox ratio;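 active means replicate mean at a twofold rise or more, about +100% in these data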;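 further: firefly luciferase made from a UUG start codon reports start codon fidelity; reporter light over untreated wells divided by growth signal over untreated wells; some hits fall short of that in this replicate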
Rce1 inh: yeast Rce1p protease inhibitors, primary screen, biochemical, fluorescence, cell-free homogeneous; CAAX prenyl protease 2 (Saccharomyces cerevisiae (strain ATCC 204508 / S288c)), Q03530; yeast membranes, quenched prenylated peptide cleavage fluorescence; calls only; 0.27% of 290,000 active; AID 2563, 2010;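 active = fall in fluorescence gain of 50% or more versus controls, with final raw signal at or below 3038400; inconclusive = same 50% fall but final raw signal above 3038400; inactive = fall in fluorescence gain under 50%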
Hits are given with their value; – = inactive; ? = inconclusive; · = no result; + = active, no number.

Chains of the proteins cited; added tags and fusions are not shown.
Desmoglein-3 (Homo sapiens), P32926, UniProt P32926, whole entry, looked up: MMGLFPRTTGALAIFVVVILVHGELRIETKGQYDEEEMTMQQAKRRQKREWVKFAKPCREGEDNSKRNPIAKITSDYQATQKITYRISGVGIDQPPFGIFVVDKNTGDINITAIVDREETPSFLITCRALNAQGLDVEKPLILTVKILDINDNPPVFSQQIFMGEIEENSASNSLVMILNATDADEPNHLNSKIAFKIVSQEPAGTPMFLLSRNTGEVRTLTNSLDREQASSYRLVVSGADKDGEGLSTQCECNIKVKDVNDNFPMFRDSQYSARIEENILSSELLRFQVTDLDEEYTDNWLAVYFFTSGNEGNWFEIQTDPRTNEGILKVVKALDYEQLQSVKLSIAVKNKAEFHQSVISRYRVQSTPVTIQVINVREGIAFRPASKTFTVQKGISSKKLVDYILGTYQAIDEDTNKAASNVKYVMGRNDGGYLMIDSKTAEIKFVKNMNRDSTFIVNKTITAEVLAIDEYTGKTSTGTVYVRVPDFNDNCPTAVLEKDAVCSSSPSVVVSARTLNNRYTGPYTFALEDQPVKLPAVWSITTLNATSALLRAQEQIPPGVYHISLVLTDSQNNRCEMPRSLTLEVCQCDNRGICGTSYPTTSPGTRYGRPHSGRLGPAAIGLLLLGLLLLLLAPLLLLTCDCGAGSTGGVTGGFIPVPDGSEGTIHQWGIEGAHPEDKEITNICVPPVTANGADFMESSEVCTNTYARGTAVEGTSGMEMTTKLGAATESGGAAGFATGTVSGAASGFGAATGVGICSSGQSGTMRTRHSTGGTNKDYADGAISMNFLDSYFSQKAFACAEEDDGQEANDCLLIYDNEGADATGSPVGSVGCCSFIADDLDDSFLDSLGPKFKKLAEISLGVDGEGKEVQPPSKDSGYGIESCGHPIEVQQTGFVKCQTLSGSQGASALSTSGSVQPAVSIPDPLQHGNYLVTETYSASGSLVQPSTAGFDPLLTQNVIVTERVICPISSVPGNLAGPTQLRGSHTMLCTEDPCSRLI

SMILES	Pemphigus Ab inh	TbMetRS inhib	Arr AP2 block	UUG fidelity	Rce1 inh
C[C@@H]1CN([C@H](C)CO)S(=O)(=O)c2ccc(-c3cccnc3)cc2O[C@@H]1CN(C)C(=O)C1CCCCC1	·	·	·	–	·
CCn1c(SCC(=O)Nc2ccc(C(C)=O)cc2)nc2nc3c(cc2c1=O)COC(C)(C)C3	95	–	–	·	–
CC1(C)Cc2nc3oc4c(=O)n(CC(=O)Nc5ccc(Cl)cc5)cnc4c3cc2CO1	87	–	–	–	–
Cc1ccccc1NC(=O)Cn1cnc2c(oc3nc4c(cc32)COC(C)(C)C4)c1=O	–	–	–	·	–
C/C=C/c1ccc2c(c1)O[C@@H](CN(C)Cc1cccc(F)c1)[C@@H](C)CN([C@@H](C)CO)S2(=O)=O	·	·	·	–	·
O=c1c(-c2ccccc2)coc2c(CN3CCCC3)c(O)ccc12	–	–	–	–	+
CCN1CCN(Cc2c(O)ccc3c(=O)c(-c4ccccc4OC)coc23)CC1	–	–	–	·	+
COc1ccccc1Oc1c(C)oc2c(CN3CCN(CCO)CC3)c(O)ccc2c1=O	·	·	·	–	+
COc1ccccc1-c1coc2c(CN3CCN(CCO)CC3)c(O)ccc2c1=O	–	–	–	–	–
CCOc1ccccc1Oc1c(C)oc2c(CN3CCN(CCO)CC3)c(O)ccc2c1=O	–	–	–	·	–
COc1ccccc1-c1coc2c(CN3CCN(C)CC3)c(O)ccc2c1=O	·	–	–	–	+
C/C=C/c1ccc2c(c1)[C@@H]1[C@@H](CCN1C(=O)Cc1ccncc1)[C@@H](CO)N2C	·	·	·	–	·
Cc1oc2c(CN3CCOCC3)c(O)ccc2c(=O)c1-c1ccccc1	–	–	–	–	+
COc1ccccc1-c1c(C)oc2c(CN3CCOCC3)c(O)ccc2c1=O	–	–	–	–	?
COC(=O)CN1C(=S)N(Cc2ccccc2)C(=O)C1CC(=O)Nc1ccc(Br)cc1 (stereo not given)	–	64	–	–	–
COC(=O)CN1C(=S)N(c2ccc(F)cc2)C(=O)C1CC(=O)Nc1ccc(F)cc1 (stereo not given)	–	–	–	–	–
O=C(CNC(=O)N1CC(=O)Nc2ccccc21)NCCc1cccc(F)c1	–	–	–	–	–
O=C(CCNC(=O)N1CC(=O)Nc2ccccc21)NCCc1cccc(F)c1	–	–	–	–	+
O=C1CN(C(=O)NCC(=O)N2CCCC2)c2ccccc2N1	–	–	–	–	+
O=C1CN(C(=O)NCC(=O)N[C@H](C(=O)O)c2ccccc2)c2ccccc2N1	–	–	–	–	–
Cc1noc(C)c1S(=O)(=O)Nc1ccc2c(c1)CC(=O)N([C@H](C)CO)C[C@H](C)[C@H](CN(C)Cc1ccc(C(=O)O)cc1)O2	·	·	·	–	·
O=C(C[C@H]1C=C[C@@H](NC(=O)C2CCC2)[C@H](CO)O1)NCCCN1CCOCC1	·	·	·	–	·
O=C(/C=C/c1cccc([N+](=O)[O-])c1)N1CCOCC1	–	–	–	·	–
O=C(/C=C/c1ccc(-c2cccc([N+](=O)[O-])c2)o1)N1CCOCC1	86	–	–	–	–
O=C(C[C@@H]1CC[C@H]2NC[C@H](O)COC[C@@H]2O1)Nc1ccccc1	·	·	·	–	·
SMILES	Pemphigus Ab inh	TbMetRS inhib	Arr AP2 block	UUG fidelity	Rce1 inh
O=C(NCc1nc(-c2ccccc2)no1)Nc1ccc(F)cc1	–	–	–	·	–
COc1ccccc1NC(=O)NCc1nc(-c2ccc(C(F)(F)F)cc2)no1	74	–	–	–	–
O=C(C[C@@H]1CC[C@H]2[C@@H](COC[C@@H](O)CN2Cc2ccccc2)O1)N[C@@H]1CCN(Cc2ccccc2)C1	·	·	·	–	·
CCN1c2ccccc2N(C)C1(C)c1ccccc1 (stereo not given)	–	–	75	–	·
Cc1cc(C)n2cc(CSc3nnnn3C)nc2n1	–	–	–	–	–
Cc1cc(C)n2cc(CSc3nncn3C)nc2n1	–	–	–	·	+
Cc1ccccc1-c1cnc2c(c1)C(=O)N([C@@H](C)CO)C[C@@H](C)[C@H](CN(C)CC1CCOCC1)O2	·	·	·	–	·
COc1ccc(S(=O)(=O)N(C)C[C@@H]2OCCCC[C@@H](C)Oc3ccc(NC(=O)NC(C)C)cc3C(=O)N([C@H](C)CO)C[C@H]2C)cc1	·	·	·	–	·
CC(C)N1CCN(Cc2ccc(Oc3ncccn3)cc2)CC1CCO (stereo not given)	–	–	–	·	+
CCc1ccc(N(C(C)=O)c2nc(CCl)cs2)cc1	87	–	–	·	·
COc1ccc(S(=O)(=O)N(C)C[C@H]2OCCCC[C@H](C)Oc3ccc(NC(=O)c4ccncc4)cc3C(=O)N([C@H](C)CO)C[C@@H]2C)cc1	·	·	·	–	·
CO[C@H]1CN(C)C(=O)c2ccc(NC(=O)C3CC3)cc2OC[C@H](C)N(C(=O)Cc2ccccn2)C[C@@H]1C	·	·	·	–	·
CN1CCN(S(=O)(=O)c2ccc(Cl)c(C(F)(F)F)c2)CC1	–	–	–	·	·
CC1CN(S(=O)(=O)c2ccc(Cl)c(C(F)(F)F)c2)CC(C)O1 (stereo not given)	–	–	70	·	–
O=C(C[C@H]1CC[C@H]2[C@@H](COC[C@H](O)CN2S(=O)(=O)c2ccc(F)cc2)O1)NCc1ccc(Cl)c(Cl)c1	·	·	·	–	·
N#CC(=C=[N-])c1nc2ccccc2nc1-[n+]1cccc(NC(=O)c2cccs2)c1	51	–	–	–	–
COC(=O)C[C@H]1CC[C@H]2[C@@H](COC[C@@H](O)CN2CCC(F)(F)F)O1	·	·	·	–	·
Cc1ccc(S(=O)(=O)CC(=O)N2CCN(c3ccccc3F)CC2)cc1	·	–	–	–	+
COCC(=O)N1C[C@@H](C)[C@H](OC)CN(C)C(=O)c2cc(NC(=O)c3ccccc3)ccc2OC[C@@H]1C	·	·	·	–	·
CCOc1cccc(-c2c(C(=O)N/N=C/c3c(F)cccc3Cl)nnn2-c2nonc2N)c1	?	–	–	–	+
CCOc1ccc(-c2c(C(=O)N/N=C/c3ccco3)nnn2-c2nonc2N)cc1	3.4	–	–	–	–
Cc1ccc(-c2c(C(=O)N/N=C/c3ccco3)nnn2-c2nonc2N)cc1	–	–	–	–	–
C[C@@H]1CN([C@@H](C)CO)C(=O)c2cc(NC(=O)Nc3ccc(C(F)(F)F)cc3)ccc2O[C@H]1CN(C)S(=O)(=O)c1cccs1	·	·	·	–	·
Cc1nnc2ccc(-c3ccc(NS(=O)(=O)c4ccccc4)cc3)nn12	71	–	–	–	·
COc1ccc(Cl)cc1C(=O)Nc1ccc2c(c1)OCO2	–	–	–	–	+
COc1ccc(Cl)cc1C(=O)Nc1ccc2c(c1)OCCO2	–	–	–	–	–
O=C(Nc1ccccc1Cl)Nc1ccnn1C1CCN(C(=O)CCN2CCCO2)CC1	–	–	–	–	–

Screens as filed in PubChem BioAssay.
